Experimental data reported in PubChem BioAssay AID853 (Columbia University Molecular Screening Center, 2007).
The entries are a selection whose mix differs from that of the whole data set. Some results for these compounds are left out of this collection, so the calls shown say nothing about other tests. The source made the active and inactive calls.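 How the source made its calls: active means inhibition of aggregate fluorescence above about 70%, also judged a hit by eye on the cell image (limit read from the data, passing the limit was not always enough); inconclusive means no rule stated for this call; inactive means not judged a hit on image review.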

assay: clearance of mutant huntingtin inclusions, primary screen, imaging, HeLa Exon1htt(103Q)mCFP, confocal imaging (AID 853); details: aggregate imaging, at 1.5 µM, active compounds read high, zero = plate's median compound well;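 further: cells exposed to compound for three days before fixation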

Row | SMILES | inhibition
1 | CN(C)c1cccc(C(=O)NCC2(N(C)C)CCCCC2)c1 | inactive: 9.8%
